This note sets out measurements from patent publication US20080220497A1, “Modulation of protein functionalities” (priority 2003, published 2008).

The chains behind the UniProt entries cited, without tags or fusion partners. A line that says so, or that is headed by a name, gives the form on record, which may keep a tag or linker.
UniProt Q16539, with tags, fused parts or gaps: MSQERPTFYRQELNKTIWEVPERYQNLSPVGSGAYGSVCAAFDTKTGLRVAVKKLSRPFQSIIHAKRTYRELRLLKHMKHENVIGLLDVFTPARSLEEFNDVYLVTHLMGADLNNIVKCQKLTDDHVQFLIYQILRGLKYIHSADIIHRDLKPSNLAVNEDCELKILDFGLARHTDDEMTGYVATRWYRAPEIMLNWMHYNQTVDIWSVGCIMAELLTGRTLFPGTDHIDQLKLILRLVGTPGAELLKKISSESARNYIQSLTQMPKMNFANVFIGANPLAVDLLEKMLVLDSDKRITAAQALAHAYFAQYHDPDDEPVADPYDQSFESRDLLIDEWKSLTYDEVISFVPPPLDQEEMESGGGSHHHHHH
UniProt Q16539, with tags, fused parts or gaps DEL261-261: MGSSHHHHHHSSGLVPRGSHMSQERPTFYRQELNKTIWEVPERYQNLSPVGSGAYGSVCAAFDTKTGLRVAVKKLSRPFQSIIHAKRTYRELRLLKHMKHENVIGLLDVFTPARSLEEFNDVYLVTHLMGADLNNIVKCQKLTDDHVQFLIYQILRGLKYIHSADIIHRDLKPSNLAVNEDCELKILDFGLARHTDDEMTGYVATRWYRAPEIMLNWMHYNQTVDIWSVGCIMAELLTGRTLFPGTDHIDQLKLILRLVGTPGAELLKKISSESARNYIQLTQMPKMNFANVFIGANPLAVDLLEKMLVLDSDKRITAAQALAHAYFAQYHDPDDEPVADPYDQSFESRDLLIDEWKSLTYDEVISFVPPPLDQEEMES

By IC50 is commonly meant the point on the concentration scale where inhibition reaches its midpoint.

One assay has as its target T1, Phospho-p38-alpha kinase (Homo sapiens, UniProt Q16539).
T1 construct: 6xHis ([…], seen only in the listing) (C); purchased Roche Applied Diagnostics
Nature of the assay: Spectrophotometric assay for phospho-p38-alpha kinase. The conditions noted are these: read-out: Biochemical assay IC50. The protocol:
Spectrophotometric Assay for Phospho-p38-alpha Kinase
• 1. […] Pyruvate kinase (PK) and lactate dehydrogenase (LDH) from Sigma: 806 units of PK and 1100 units of LDH per mL • 4. NADH (Sigma): 5.6 mM • 5. Phosphoenol pyruvate (Sigma): 20 mM • 6. Tris buffer: 100 mM Tris-HCl/20 mM MgCl2, pH 7.5, 150 uM n-Dodecyl-b-D-Maltopyranoside, and 5% DMSO • 7. ATP (20 mM) • 8. […] Polarstar Optima plate reader (BMG)
IC50 determinations were performed using a serial dilution scheme to dilute inhibitor in DMSO, followed by further dilution in reaction buffer, and finally mixing with Mixture 1 (Table 29) which contains all the enzymes. The dilution procedure ensured that the test compound at various concentrations was properly dissolved into the buffer and enzyme reaction mixture.
• 1. […] Read on the microplate reader with one point every min for at least 2.5 hours at 30° C.
A linear regression was applied to data collected from t=1.5 hr to 2.5 hr to obtain the reaction rate for each data set. […] Percentage of inhibition was calculated by comparison of the rate in the presence of a compound with that of the control. IC50 values were calculated from a series of % inhibition values determined at a range of inhibitor concentrations using GraphPad Prism (version 4). The extinction coefficient at 340 nm for NADH under the assay condition (100 μL height in a Corning 3675 microplate well) was determined to be 5×10^3 M^−1.

Assay [1] has as its target T2, doubly phosphorylated p38-alpha kinase (Homo sapiens, UniProt Q16539).
T2 construct: 6xHis ([…], seen only in the listing) (C); purchased Roche Applied Diagnostics
Nature of the assay: Thermal denaturation of doubly phosphorylated p38-alpha kinase. As to conditions: 0.5 μM p38-alpha kinase, 20 μM small molecule. The class given is binding. The protocol: (§1) Denaturation was monitored by measuring the absolute absorbance of the solutions at an appropriate wavelength (typically 230 nm and 240 nm) as a function of temperature. As the protein became denatured, additional UV absorbing functional groups became exposed causing an increase in absorbance at the melting temperature. […] The thermal data were collected using Agilent spectrophotometers and ChemStation UV/Vis Thermal Denaturation software.
The final concentration was 0.5 μM p38-alpha kinase and 20 μM small molecule. The final protein and buffer solution was mixed gently using a pipetter to minimize denaturing due to over aggressive mixing. The final solution was transferred to a 50 μL cuvette for analysis.
The protein and buffer solution was mixed gently using a pipetter to minimize denaturing due to over aggressive mixing. The final solution was transferred to a 50 μL cuvette for analysis.
(§2) A first derivative calculation with data smoothing was applied to the resulting data to report the point of inflection as the melting temperature.

Assay [2] has as its target T3, unphosphorylated p38-alpha kinase (Homo sapiens, UniProt Q16539, DEL261-261).
T3 construct: 48 (6×His-TEV tag, full length); 6×His-TEV tag (N); purchased Decode Genetics, Inc; host or cells: E. coli
Nature of the assay: Fluorescence affinity assay, unphosphorylated p38-alpha kinase. Type of assay: binding. The text has this:
(§3) This fluorescence affinity assay is utilized in an affinity-based screen to identify small molecules which bind into switch control pockets of protein kinases. Binding of small molecule switch inhibitors displaces the switch control ligand phenylalanine of the DFG motif into an orientation which sterically blocks the ATP pocket. Such inhibitor-induced blockade of the ATP pocket is registered as an inhibition of binding of the fluoroprobe into the ATP pocket.
(§4) • 1. p38-alpha kinase • a. […] Polarstar Optima plate reader (BMG)
• 1. […] This dilution can be done automatically on a Tecan (or similar) robotic workstation or performed manually. • 3. […] Read at emission wavelength 420 nm upon excitation at 340 nm.
The reaction was initiated by addition of the enzyme. […] By comparison of RFU (relative fluorescence units) values with that of a control (in the absence of small molecule modulators), the percentage of inhibition at each concentration of the small molecules was calculated. IC50 values for the small molecule modulators were calculated from the % inhibition values obtained at a range of concentrations of the small molecule modulators using Prism (available from GraphPad, Inc.). When time-dependent inhibition was assessed, the plate was read at multiple reaction times such as 0.5, 1, 2, 3, 4 and 6 hours. The IC50 values were calculated at each time point. […]

Assay [3] concerns the target T3, unphosphorylated p38-alpha kinase. Briefly: Thermal denaturation of unphosphorylated p38-alpha kinase. As to conditions: 15 μM small molecule. Type of assay: binding.
Excerpt: as §1
The final protein and buffer solution was mixed gently using a pipetter to minimize denaturing due to over aggressive mixing. The final solution was transferred to a 50 μL cuvette for analysis.
The final solution was transferred to a 50 μL cuvette for analysis.
as §2

The target in assay [4] is T2, doubly phosphorylated p38-alpha kinase. Briefly: Fluorescence affinity assay, doubly phosphorylated p38-alpha kinase. The class given is binding.
Excerpt: as §3, §4
• 1. […] This dilution can be done automatically on a Tecan (or similar) robotic workstation or performed manually. • 3. Mix Solution A with the diluted compound solutions following Step 3 of Table 22. This step can be performed automatically on a Tecan (or similar) robotic workstation or performed manually. • 4. Incubate at 30° C. or room temp for 2 h, depending on protein stability. • 5. Read at emission wavelength 420 nm upon excitation at 340 nm. […]
A ratio greater than 1.0 indicates a preference for inhibiting the unphosphorylated form of p38-alpha kinase relative to the doubly phosphorylated form. A ratio less than 1.0 indicates a preference for inhibiting the doubly phosphorylated form of p38-alpha kinase relative to the unphosphorylated form.

For the compound `CC(C)(C)c1cc(NC(=O)Nc2cccc(Cl)c2Cl)n(-c2cccc(CC(N)=O)c2)n1` [Example 69], the IC50 at Phospho-p38-alpha kinase turned out to be 7 nM.

As for `CC(C)(C)c1cc(NC(=O)Nc2cccc3ccccc23)n(-c2cccc(CCC(=O)O)c2)n1` [Example 29, 3-(3-(3-tert-butyl-5-(3-(naphthalen-1-yl)ureido)-1H-pyrazol-1-yl)phenyl)propanoic acid], the IC50 on Phospho-p38-alpha kinase was found to be 12 nM; in assay [2] it was 16 nM; in assay [4], 56 nM. For the same compound, the “ΔTm (° C.) relative to doubly phosphorylated p38” value in assay [1] stood at 7.3 °C. The “ΔTm (° C.) relative to unphosphorylated apo p38” value in assay [3] is 10.1 °C.
